Exocytosis inh – blocks lytic granule exocytosis; actives 0.66% (n = 360,000); TALL-104 LAMP-1 surface exposure, flow cytometry; cells stimulated with thapsigargin and PMA; inhibition, % at 10 µM;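 active = inhibition above about 55%, limit read from the data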
ABCB6 inh MLPCN – inhibitors of human ABC transporter ABCB6. Q9NP58. K562-ABCB6 porphyrin accumulation, flow cytometry, 1 h; active compounds read low. fluorescence ratio to DMSO, % at 10 µM. actives 0.19% (n = 360,000). AID 602162;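 active = fluorescence ratio to DMSO below 75%, the collection mean minus 3 SD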;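 note: signal is porphyrin accumulated inside mitochondria; 100% equals median channel fluorescence of DMSO control wells; lower ratio means ABCB6 inhibition with less porphyrin fluorescence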
PKA-R1A act – activators of PKA-R1A complex | PKA-R1A dissociation, Cy5-IP20 fluorescence polarization; scaled: DMSO 0%, 113 µM cGMP 100% | activation, % at 11.4 µM | actives 0.083% (n = 340,000) | AID 504707;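 active = percent activation above the mean of all tested compounds plus 3 SD, cut at about 19% in these data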;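 note: higher means more PKAc released from R1A so a rise in polarization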
pCIP destab – compounds decreasing mouse p/CIP protein stability; decrease of EGFP signal, % at 10 µM; actives 0.01% (n = 290,000); Q05BA5; F442A p/CIP-EGFP cells, EGFP fluorescence, 16 h;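 active = EGFP signal decrease of at least 30% at 10 µM or well 3 SD below plate mean, unless failing retest; inactive = the rest, including hits failing retest or dose response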
PKA-R2B act – activates the human PKA-R2B holoenzyme complex; P22694+P31323; PKA-R2B holoenzyme dissociation, Cy5-IP20 fluorescence polarization; R2B truncated from residue 108, S112A mutant; 0% DMSO only, 100% 113 µM cGMP; activation, % at 11.4 µM; actives 0.079% (n = 340,000); AID 504700;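 active = activation above a cutoff set at the mean over all compounds plus 3 SD, cut at about 18% in these data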;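 note: higher means more holoenzyme dissociation and a rise in polarization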
Yeast UUG start – modulators of start codon recognition fidelity in yeast. S. cerevisiae UUG-firefly luciferase reporter, luminescence/redox ratio. activity score, % at 18.7 µM. 0.13% of 350,000 active. AID 602363;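 active = replicate mean at a twofold rise or more, about +100% in these data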;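 also: firefly luciferase made from a UUG start codon reports start codon fidelity; reporter light over untreated wells divided by growth signal over untreated wells; some hits fall short of that in this replicate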
Exocytosis CP01 – lytic granule exocytosis inhibition; shares compounds with Exocytosis inh; inhibition, % at 10 µM; TALL-104 cells, LAMP-1 externalization, flow cytometry; stimulated with PMA plus thapsigargin; actives 11% (n = 1,500); in the data active = inhibition above about 60%;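 note: 0% = stimulated vehicle wells and 100% = unstimulated wells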
Active calls of the source: *; nt = no result. This is a sample that favours compounds with a hit; in the whole collection about 0.94% have one here.

SMILES	Exocytosis inh	ABCB6 inh MLPCN	PKA-R1A act	pCIP destab	PKA-R2B act	Yeast UUG start	Exocytosis CP01
Cc1noc(C)c1S(=O)(=O)N(C)C[C@H]1Oc2c(NC(=O)Nc3ccccc3)cccc2C(=O)N([C@H](C)CO)C[C@@H]1C	65.4*	98.0	5.9	nt	-12.3	-7.4	-14.1
C[C@@H]1CN([C@@H](C)CO)C(=O)c2cc(NC(=O)Nc3ccc4c(c3)OCO4)ccc2O[C@H]1CN(C)S(=O)(=O)c1cn(C)cn1	63.6*	97.0	0.7	nt	-8.7	14.3	-14.4
O=C(Nc1cc(F)ccc1F)N1CCCCN2[C@H](CO)[C@@H](c3ccc(-c4cncnc4)cc3)[C@@H]2C1	nt	nt	nt	nt	nt	0.5	nt
N#Cc1cc(Oc2cccc3cccnc23)c(-n2nnc3ccccc32)cc1C#N	99.0*	118.0	7.2	-1.5	4.9	-6.7	-11.1
N#Cc1cc(O)c(-n2nnc3ccccc32)cc1C#N	-5.0	89.0	6.4	-4.0	0.2	-15.5	nt
CCCNC(=O)N1[C@@H]2CN(C(=O)NC(C)C)c3ccccc3[C@@H]2[C@@H]1CO	nt	nt	nt	nt	nt	-0.4	nt
O=C(NCc1ccccc1)C1(c2ccccc2)CCN(S(=O)(=O)c2ccccc2)CC1	62.7*	96.0	-9.0	-0.4	3.5	8.2	-3.3
C[C@@H]1CN([C@H](C)CO)S(=O)(=O)c2ccc(-c3ccc(C(=O)N(C)C)cc3)cc2O[C@@H]1CN(C)C(=O)C1CCCCC1	nt	nt	nt	nt	nt	8.2	nt
COc1cccc(C(=O)Nc2ccc(-c3nc4ccccc4o3)c(O)c2)c1	2.6	100.0	-17.6	-14.4	-2.3	-18.8	nt
COc1cc(OC)cc(C(=O)Nc2ccc(-c3nc4ccccc4o3)cc2)c1	99.8*	103.0	-0.4	-14.8	2.0	-3.4	39.1
CCOCCCNC(=S)N1CCCN(c2nc3c(C)c(C)ccc3cc2C#N)CC1	90.6*	102.0	-6.8	-12.5	-11.7	nt	78.9*
CCOCCCNC(=S)N1CCCN(c2nc3cc(C)ccc3cc2C#N)CC1	0.6	95.0	-15.7	-3.7	-10.2	nt	nt
CN1C[C@@H]2C[C@@H](C3=Cc4cc(Cl)ccc4OC3)N3CCC[C@@]23C1=O	-7.1	96.0	5.2	-4.1	-11.0	0.5	nt
COc1ccccc1CN1C[C@@H]2C[C@@H](C3=Cc4cc(Cl)ccc4OC3)N3CCC[C@@]23C1=O	55.5*	95.0	8.4	-9.3	-4.3	nt	-1.6
CC(C)CC#Cc1cnc2c(c1)C(=O)N([C@H](C)CO)C[C@H](C)[C@H](CN(C)Cc1ccccc1C(=O)O)O2	nt	nt	nt	nt	nt	12.4	nt
COc1ccc(CN2CCN(CCCCOc3ccc(Cl)cc3)CC2)c(OC)c1OC	76.1*	109.0	-11.2	2.4	3.1	nt	-10.0
CS(=O)(=O)N(Cc1ccc(C(=O)Nc2ccccc2Sc2ccccc2)cc1)c1ccccc1	85.1*	101.0	-6.6	-9.6	-8.2	nt	-1.5
Cc1ccc(NC(=O)c2cc(-c3ccc(C)o3)nc3ccccc23)cc1	84.0*	95.0	-11.9	-4.4	-13.3	-17.2	-12.0
Cc1ccc(-c2cc(C(=O)Nc3ccccn3)c3ccccc3n2)o1	87.9*	106.0	15.3	-100.4	-0.8	nt	-9.4
Cc1ccc(-c2cc(C(=O)Nc3cccnc3)c3ccccc3n2)o1	82.2*	102.0	-5.0	-11.0	-0.6	-18.0	-11.6
Cc1ccc(C)c(-c2cc(C(=O)Nc3cccnc3)c3ccccc3n2)c1	1.4	97.0	6.5	8.7	-2.2	-17.4	nt
C[C@@H]1CN([C@H](C)CO)C(=O)c2cc(C#CC3CC3)cnc2O[C@@H]1CN(C)C(=O)c1ccccc1	nt	nt	nt	nt	nt	-1.0	nt
COc1ccccc1CNC(=O)c1sccc1-c1ccccc1	66.5*	99.0	-0.8	-6.4	1.7	-0.9	-13.2
COc1ccccc1CNC(=O)c1sccc1C	-10.9	95.0	-1.4	-2.6	-1.1	-12.2	nt
COCCNC(=S)N(CCc1c(C)[nH]c2ccc(C)cc12)Cc1ccco1	5.3	96.0	-1.8	-5.0	-9.1	nt	nt

Reprinted at random: 2 entries already listed
SMILES	Exocytosis inh	ABCB6 inh MLPCN	PKA-R1A act	pCIP destab	PKA-R2B act	Yeast UUG start	Exocytosis CP01
COc1ccccc1CN1C[C@@H]2C[C@@H](C3=Cc4cc(Cl)ccc4OC3)N3CCC[C@@]23C1=O	55.5*	95.0	8.4	-9.3	-4.3	nt	-1.6
CS(=O)(=O)N(Cc1ccc(C(=O)Nc2ccccc2Sc2ccccc2)cc1)c1ccccc1	85.1*	101.0	-6.6	-9.6	-8.2	nt	-1.5

Remaining list, next part:
SMILES	Exocytosis inh	ABCB6 inh MLPCN	PKA-R1A act	pCIP destab	PKA-R2B act	Yeast UUG start	Exocytosis CP01
COCCNC(=S)N(CCc1c(C)[nH]c2ccc(F)cc12)Cc1ccc(C)cc1	77.1*	97.0	-9.2	11.1	-0.1	-14.2	22.8
CCCC(=O)Nc1ccc2c(c1)C(=O)N(C)[C@@H]1CC[C@@H](CC(=O)NCCOC)O[C@@H]1CO2	nt	nt	nt	nt	nt	-24.4	nt
NCCCC[C@H]1CNC(=O)C(=O)N1CCc1cccc(F)c1	-4.9	104.0	2.9	-5.8	-8.1	-10.2	nt
O=C1NC[C@H](Cc2ccccc2)N(CCc2cccc(F)c2)C1=O	61.3*	101.0	3.1	-7.9	1.3	-1.0	-12.9
Cc1noc(C)c1NC(=O)N(C)C[C@@H]1OCCCC[C@H](C)Oc2ccc(NC(=O)NC(C)C)cc2C(=O)N([C@@H](C)CO)C[C@@H]1C	nt	nt	nt	nt	nt	-3.4	nt
Cc1noc(C)c1S(=O)(=O)Nc1ccc2c(c1)C(=O)N([C@@H](C)CO)C[C@H](C)[C@@H](CN(C)S(=O)(=O)c1ccccc1)OCCCC[C@H](C)O2	nt	nt	nt	nt	nt	0.1	nt
COc1cc(NC(=O)c2ccccc2OCc2ccccc2)cc(OC)c1OC	84.1*	98.0	-12.3	-15.9	-4.4	-11.3	-7.2
CNC(=O)c1cccc(NC(=O)c2ccccc2OCc2ccccc2)c1	63.1*	97.0	6.3	3.7	-1.5	3.9	-5.2
CN(C)C(=O)C[C@@H]1C=C[C@@H](NC(=O)NC2CCCCC2)[C@H](CO)O1	nt	nt	nt	nt	nt	-3.3	nt
CCC(=O)N1C[C@H](C)[C@@H](OC)CN(C)C(=O)c2cc(NC(=O)c3ccc(F)cc3)ccc2OC[C@H]1C	nt	nt	nt	nt	nt	0.9	nt
COc1cc2c(cc1OC)CN(c1ccc([N+](=O)[O-])cc1C#N)CC2	77.4*	96.0	-3.0	3.3	-4.1	nt	-3.0
COc1cc2c(cc1OC)CN(c1ccc([N+](=O)[O-])cc1Cl)CC2	69.6*	98.0	8.4	-3.2	1.3	-2.0	-8.3
COc1cc2c(cc1OC)CN(c1ccc(F)cc1[N+](=O)[O-])CC2	-8.5	90.0	-11.7	0.9	-10.1	-5.8	nt
COc1ccccc1S(=O)(=O)N[C@H]1CC[C@H](CC(=O)N2CCN(C)CC2)O[C@H]1CO	nt	nt	nt	nt	nt	-19.0	nt
COc1ccc(CCNc2cc(C)nc3c(-c4ccccc4)cnn23)cc1OC	-1.4	99.0	7.5	-19.2	-10.6	nt	nt
Cc1cc(NCc2ccccc2)n2ncc(-c3ccccc3)c2n1	57.9*	98.0	-4.8	2.0	-3.1	0.9	-10.6
Cc1cc(NC2CCCC2)n2ncc(-c3ccccc3)c2n1	15.3	91.0	6.0	-6.0	12.0	-74.9	nt
Cc1cc(NC(C)c2ccccc2)n2ncc(-c3ccccc3)c2n1 (stereo not drawn)	95.3*	99.0	-5.4	7.3	-2.4	2.5	18.0
COC(C[C@@H](O)[C@H](C)[C@@H](O)COCc1ccccc1)OC	69.5*	101.0	10.6	-2.0	-3.9	-4.2	-4.9

Exported with the structure last: 3 of the compounds above
| Exocytosis inh | ABCB6 inh MLPCN | PKA-R1A act | pCIP destab | PKA-R2B act | Yeast UUG start | Exocytosis CP01 | canonical_smiles |
| --- | --- | --- | --- | --- | --- | --- | --- |
| 99.0* | 118.0 | 7.2 | -1.5 | 4.9 | -6.7 | -11.1 | N#Cc1cc(Oc2cccc3cccnc23)c(-n2nnc3ccccc32)cc1C#N |
| -5.0 | 89.0 | 6.4 | -4.0 | 0.2 | -15.5 | nt | N#Cc1cc(O)c(-n2nnc3ccccc32)cc1C#N |
| nt | nt | nt | nt | nt | -0.4 | nt | CCCNC(=O)N1[C@@H]2CN(C(=O)NC(C)C)c3ccccc3[C@@H]2[C@@H]1CO |
